Results reported in PMC7571065, “Design, Synthesis, In Vitro and In Silico Studies of New Thiazolylhydrazine-Piperazine Derivatives as Selective MAO-A Inhibitors” (Molecules, 2020).

Chains of the proteins cited; added tags and fusions are not shown.
UniProt P21397, whole entry: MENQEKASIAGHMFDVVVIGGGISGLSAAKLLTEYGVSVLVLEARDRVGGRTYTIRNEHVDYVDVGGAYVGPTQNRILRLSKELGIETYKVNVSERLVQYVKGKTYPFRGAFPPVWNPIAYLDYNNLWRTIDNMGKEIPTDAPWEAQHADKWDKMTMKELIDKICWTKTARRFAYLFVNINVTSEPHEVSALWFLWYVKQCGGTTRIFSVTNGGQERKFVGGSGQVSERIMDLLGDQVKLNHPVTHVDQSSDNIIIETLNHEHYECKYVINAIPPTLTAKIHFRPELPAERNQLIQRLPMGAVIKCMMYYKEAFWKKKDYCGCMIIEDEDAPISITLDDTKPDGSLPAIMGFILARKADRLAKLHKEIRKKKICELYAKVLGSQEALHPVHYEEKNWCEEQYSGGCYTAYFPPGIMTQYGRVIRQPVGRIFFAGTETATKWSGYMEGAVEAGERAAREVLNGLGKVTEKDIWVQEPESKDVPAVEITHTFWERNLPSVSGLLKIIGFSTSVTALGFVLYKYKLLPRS

Target: T1, MAO-A (Homo sapiens, UniProt P21397)
T1 construct: purchased Sigma-Aldrich (Steinheim, Germany)
Assay: In vitro fluorometric MAO-A inhibition assay (Ampliflu Red, tyramine)
Type: biochemical
Settings: read-out: MAO-A % Inhibition

**Q.** With `C#CCN(C)CCCOc1ccc(Cl)cc1Cl` [Clorgiline, clorgiline, reference compound] as the molecule, how does the inhibition at 100 µM read?
**A.** 91.3 ± 1.3%

**Q.** And the inhibition at 1000 µM?
**A.** 96.9 ± 1.25%
